Measurements: PubChem BioAssay AID920 (The Scripps Research Institute Molecular Screening Center, 2007)
Only a part is listed here, and it is no random draw. The source made the active and inactive calls.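 Rule for the calls: active = inhibition above a set limit, the mean inhibition across all tested compounds plus 3 SD (cut at about 34% in these data); inactive = the rest.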

Assay: blockers of IFN-gamma driven STAT1 reporter – cell-based, HTS, luciferase reporter, primary screen (AID 920);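 note: 0% = IFN-gamma with DMSO and 100% = IFN-gamma with 300 µM nifuroxazide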
Settings: NIH 3T3 STAT1-luciferase reporter, luminescence, at 5.5 µM, active compounds read high

Structure (SMILES)	inhibition
O=[N+]([O-])c1cc([N+](=O)[O-])c(-n2nnc3ccccc32)c([N+](=O)[O-])c1	inactive: 3.32%
Cc1nc2ccc3ccccc3c2s1.O=[N+]([O-])c1cc([N+](=O)[O-])c(O)c([N+](=O)[O-])c1	inactive: -10.4%
CP(=O)(Nc1ccc(SC(F)(F)F)cc1)Oc1ccccc1 (stereo not given)	inactive: 8.69%
CCCOc1ccc(NP(C)(=O)Oc2ccc(Cl)cc2)cc1 (stereo not given)	inactive: -2.2%
COc1ccccc1OP(C)(=O)Nc1c(C)cccc1C (stereo not given)	inactive: 3.51%
CN1CCCCC1COC(=O)C1(O)c2ccccc2CCc2ccccc21 (stereo not given)	inactive: 7.59%
CC1=NCCc2c1[nH]c1ccccc21.O=[N+]([O-])c1cc([N+](=O)[O-])c(O)c([N+](=O)[O-])c1	inactive: 9.81%
Cc1cc(C)cc(OP(C)(=O)Nc2ccc(C)cc2C)c1 (stereo not given)	inactive: -7.18%
CCOC(=O)c1ccc(NP(C)(=O)Oc2cc(C)cc(C)c2)cc1 (stereo not given)	inactive: -8.27%
CP(=O)(Nc1cccc(Br)c1)Oc1ccccc1 (stereo not given)	inactive: -2.77%
Cc1cc(C)cc(OP(C)(=O)Nc2ccccn2)c1 (stereo not given)	inactive: -10.1%
Cc1ccc(C)c(NP(C)(=O)Oc2ccccc2)c1 (stereo not given)	inactive: -4.64%
CCN(CC)CCCOC(=O)C(O)(c1ccccc1)c1ccccc1	inactive: -2.28%
CC(C)(C)c1ccc(OP(C)(=O)Nc2ccc(SC(F)(F)F)cc2)cc1 (stereo not given)	inactive: 4.14%
Cc1cccc(C)c1OP(C)(N)=O (stereo not given)	inactive: 6.41%
O=[N+]([O-])c1ccc2c(c1)C=Nc1ccccc1O2	inactive: -3.28%
COc1ccccc1OP(C)(=O)Nc1cc(Cl)ccc1C (stereo not given)	inactive: 6.01%
COc1ccc(OP(C)(=O)Nc2cccc(F)c2)cc1 (stereo not given)	inactive: -6.94%
Cc1cc(C)cc(OP(C)(N)=O)c1 (stereo not given)	inactive: 3.22%
CCOC(=O)c1ccc(NP(C)(=O)Oc2ccccc2)cc1 (stereo not given)	inactive: -1.3%
COc1ccccc1OP(C)(=O)Nc1ccc(C)cc1 (stereo not given)	inactive: 1.54%
Cc1ccc(NP(C)(=O)Oc2ccccc2)c(C)c1 (stereo not given)	inactive: 5.62%
COc1ccccc1OP(C)(=O)Nc1ccccc1 (stereo not given)	inactive: -6.08%
CP(=O)(Nc1ccccc1Br)Oc1ccccc1 (stereo not given)	inactive: 4.39%

Structure (SMILES)	inhibition
CP(=S)(Nn1cnnc1)Oc1ccccc1 (stereo not given)	inactive: 6.65%
CP(=O)(NC(=O)Nc1ccccc1)Oc1ccccc1 (stereo not given)	inactive: 2.51%
Cc1cc(C)cc(OP(C)(=O)Nc2ccc(SC(F)(F)F)cc2)c1 (stereo not given)	inactive: -4.01%
Cc1cccc(C)c1OP(C)(=O)Nc1ccc(SC(F)(F)F)cc1 (stereo not given)	inactive: -4.69%
CP(=O)(Oc1ccccc1)OC(c1ccccc1)C(F)(F)F (stereo not given)	inactive: 15.5%
CP(=O)(Nc1ccccn1)Oc1ccc(Cl)cc1 (stereo not given)	inactive: 6.63%
CCOP(C)(=S)SCC(=O)NC(C)C(=O)O (stereo not given)	inactive: -11.4%
CCOC(=O)c1ccc(NP(C)(=O)Oc2ccc(OC)cc2)cc1 (stereo not given)	inactive: 2.97%
CP(=O)(Oc1ccccc1)N1CCOC1=O (stereo not given)	inactive: 0.16%
CCc1ccc(OP(C)(=O)Nc2cccnc2)cc1 (stereo not given)	inactive: -1.52%
COc1ccccc1OP(C)(=O)Nc1c(C)n(C)n(-c2ccccc2)c1=O (stereo not given)	inactive: 5.62%
CCN(CC)CC(O)COC(=O)C(O)(c1ccccc1)C1CCCCC1 (stereo not given)	inactive: -5.45%
COc1ccc(OP(C)(=O)Nc2ccc(Br)cc2)cc1 (stereo not given)	inactive: 5.04%
CN(C)C(=O)c1c([N+](=O)[O-])cc([N+](=O)[O-])cc1[N+](=O)[O-]	inactive: -1.06%
CP(=O)(Nc1ccc(Cl)cc1)Oc1ccc(F)cc1 (stereo not given)	inactive: 8.04%
CC(C)(C)c1ccc(OP(C)(=O)O)cc1	inactive: -3.24%
COc1ccccc1OP(C)(=O)Nc1ccccc1Br (stereo not given)	inactive: -6.74%
CP(=O)(OC12CC3CC(CC(C3)C1)C2)OC12CC3CC(CC(C3)C1)C2	inactive: 12.1%
CCOC(=O)c1ccc(NP(C)(=O)Oc2ccc(Cl)cc2)cc1 (stereo not given)	inactive: 4.33%
COc1ccc(OP(C)(=O)Nc2ccccc2Br)cc1 (stereo not given)	inactive: 3.13%
COc1ccccc1OP(C)(=O)Nc1ccc(C)c(C)c1 (stereo not given)	inactive: 1.12%
Cc1cc(C)cc(OP(C)(=O)Nc2cccc(C(F)(F)F)c2)c1 (stereo not given)	inactive: -0.34%
CP(=O)(OCCOc1ccccc1)OCCOc1ccccc1	inactive: -3.19%
CP(=O)(Nc1ccc(Cl)cc1Cl)Oc1ccccc1 (stereo not given)	inactive: -2.44%

Structure (SMILES)	inhibition
Cc1nc2ccc3ccccc3c2o1.O=[N+]([O-])c1cc([N+](=O)[O-])c(O)c([N+](=O)[O-])c1	inactive: -5.51%
CN(C)CCOC(=O)C(O)(c1ccccc1)C1CCCC1 (stereo not given)	inactive: 4.4%
COc1ccc(OP(C)(=O)Nc2ccccn2)cc1 (stereo not given)	inactive: -0.38%
CCc1ccc(OP(C)(=O)O)cc1	inactive: 4.74%
CP(=O)(Nc1ccccn1)Oc1ccccc1 (stereo not given)	inactive: -1.48%
COc1ccccc1OP(C)(=O)Nc1ccc(C)cc1C (stereo not given)	inactive: 5.96%
O=[N+]([O-])c1cc([N+](=O)[O-])c(Nc2ccccn2)c([N+](=O)[O-])c1	inactive: 28.5%
Cc1c(NP(C)(=O)Oc2ccc(C(C)C)cc2)c(=O)n(-c2ccccc2)n1C (stereo not given)	inactive: -4.17%
CC(C)c1ccc(OP(C)(=O)Nc2ccc(SC(F)(F)F)cc2)cc1 (stereo not given)	inactive: -3.28%
CP(=O)(Nc1ccccc1F)Oc1ccccc1 (stereo not given)	inactive: -7.52%
O=C(OCCN1CCN(CCOCc2ccccc2)CC1)C(O)(c1ccccc1)c1ccccc1	inactive: -4.22%
COc1ccc(OP(C)(=O)Nc2ccc(SC(F)(F)F)cc2)cc1 (stereo not given)	inactive: -1.75%
CCOC(=O)c1ccc(NP(C)(=O)Oc2ccc(F)cc2)cc1 (stereo not given)	inactive: -4.27%
CP(=O)(Nc1ccccc1)Oc1ccc(F)cc1 (stereo not given)	inactive: -4.11%
CCN(CC)CCCOC(=O)C(O)(c1ccccc1)C1CCCCC1 (stereo not given)	inactive: 2.23%
COc1ccc(NP(C)(=O)Oc2ccccc2OC)cc1 (stereo not given)	inactive: 0.04%
CN(C)CCOC(=O)C(O)(c1ccccc1)C1CCCCC1 (stereo not given)	inactive: 8.37%
COc1ccc(OP(C)(=O)Nc2cccc(Br)c2)cc1 (stereo not given)	inactive: 0.63%
O=[N+]([O-])c1cc([N+](=O)[O-])c(NCC2CCS(=O)(=O)C2)c([N+](=O)[O-])c1 (stereo not given)	inactive: 15.7%
CCOP(C)(=S)SCC(=O)NC(C)(CC)C(=O)O (stereo not given)	inactive: 1.01%
Cc1ccccc1NP(C)(=O)Nc1ccccc1C	inactive: 3.85%
CP(=O)(Nc1ccc2c(c1)OCCO2)Oc1ccccc1 (stereo not given)	inactive: 7.76%
